# Measurements published in paper PMC5766324.
# Molecular target: tubulin (UniProt P02550)
# Assay: ELISA
substance,measurement,value
CRMP2-6XHis (from UniProt P47942 1-572) (natural protein),EC50,607 nM
